Here are results for 7 compounds from PubChem BioAssay AID1645858 (Buhrlage Lab, Dana-Farber Cancer Institute and Novartis …, 2021).

Sequences of proteins named here, by UniProt entry; tags and fusion partners are left off.
UniProt Q5T2D3, whole entry: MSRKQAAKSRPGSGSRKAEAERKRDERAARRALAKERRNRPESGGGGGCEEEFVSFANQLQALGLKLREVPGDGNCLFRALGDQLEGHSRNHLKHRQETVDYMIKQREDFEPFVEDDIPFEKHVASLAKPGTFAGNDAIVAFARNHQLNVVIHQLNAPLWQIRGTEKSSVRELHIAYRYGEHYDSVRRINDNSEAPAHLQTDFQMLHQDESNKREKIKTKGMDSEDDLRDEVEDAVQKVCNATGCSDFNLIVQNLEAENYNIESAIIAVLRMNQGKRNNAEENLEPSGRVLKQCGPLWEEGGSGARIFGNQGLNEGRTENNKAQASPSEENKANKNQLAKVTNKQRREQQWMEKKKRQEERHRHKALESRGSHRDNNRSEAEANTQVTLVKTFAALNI

Only a part is listed here, and it is no random draw. Some of these compounds have results that are not shown, active ones among them. The source made the active and inactive calls. Rule as the data show it: active = inhibition above about 30%; inactive = the rest.

The target in this experiment is OTU domain-containing protein 3 (Homo sapiens) (UniProt Q5T2D3). Nature of the experiment: blocks human OTUD3 ubiquitin-rhodamine cleavage (AID 1645858). The note with it: purified OTUD3, Ub-rhodamine fluorescence, 2 h; at 25 µM; active compounds read high.
Usually inhibition stands for the change of the read-out against control, counted positive when it falls. Turning to `Cc1c(C(=O)NCC2(N(C)C)CCCCC2)oc2ccccc12`, the inhibition is inactive: -5.32%.
The figure for `O=C(NCC1(N2CCCCC2)CCCCC1)c1ccc2ccccc2c1` is inactive: -4.53%; for `O=C(NCC1(N2CCOCC2)CCCCC1)c1ccccc1F` it is inactive: -1.12%.
The figure for `COc1ccc(C(=O)NCC2(N3CCOCC3)CCCCC2)cc1` is inactive: -3.24%; for `O=C(NCC1(N2CCCCC2)CCCCC1)c1ccc2c(c1)OCCO2` it is inactive: 4.36%.
The figure for `Cc1c(C(=O)NCC2(N(C)C)CCCCC2)oc2ccc(F)cc12` is inactive: 4.73%; for `COc1cccc(C(=O)NCC2(N3CCCCC3)CCCCC2)c1` it is inactive: -36.1%.
